Laboratory results taken from ChEMBL document CHEMBL1139291, “Syntheses and opioid receptor binding properties of carboxamido-substituted opioids” (Bioorg Med Chem Lett, 2009).

Amino acid sequences for entries named in this document (tags omitted). A change or cut given only in a name is not applied to a line headed by its entry.
UniProt P41145: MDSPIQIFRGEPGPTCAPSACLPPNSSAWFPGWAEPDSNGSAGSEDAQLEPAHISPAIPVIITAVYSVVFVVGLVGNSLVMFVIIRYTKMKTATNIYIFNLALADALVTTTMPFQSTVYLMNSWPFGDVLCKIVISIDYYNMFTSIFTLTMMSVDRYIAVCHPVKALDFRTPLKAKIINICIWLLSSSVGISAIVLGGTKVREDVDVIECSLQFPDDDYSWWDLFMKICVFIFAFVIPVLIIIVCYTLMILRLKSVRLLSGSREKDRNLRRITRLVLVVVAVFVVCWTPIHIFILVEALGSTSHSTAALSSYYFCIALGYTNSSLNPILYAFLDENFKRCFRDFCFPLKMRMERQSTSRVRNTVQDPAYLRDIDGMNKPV

Biological target: Kappa-type opioid receptor (Homo sapiens, UniProt P41145)
Experiment: biochemical
Format: cell-based, CHO

## C=C1CC[C@@]2(O)[C@H]3Cc4ccc(O)c5c4[C@@]2(CCN3CC2CC2)[C@H]1O5
  Ki: 0.12 nM
